Results from ChEMBL document CHEMBL6134888, “Challenging the "Undruggable"─Targeting STAT3 but Identifying Potent TrkA-Targeted Inhibitors” (J Med Chem, 2025).

By UniProt entry, the sequences of proteins in these tests, tags left out. Where a name states a change or a piece, a line headed by the entry shows the natural chain unless it says otherwise.
UniProt P27448: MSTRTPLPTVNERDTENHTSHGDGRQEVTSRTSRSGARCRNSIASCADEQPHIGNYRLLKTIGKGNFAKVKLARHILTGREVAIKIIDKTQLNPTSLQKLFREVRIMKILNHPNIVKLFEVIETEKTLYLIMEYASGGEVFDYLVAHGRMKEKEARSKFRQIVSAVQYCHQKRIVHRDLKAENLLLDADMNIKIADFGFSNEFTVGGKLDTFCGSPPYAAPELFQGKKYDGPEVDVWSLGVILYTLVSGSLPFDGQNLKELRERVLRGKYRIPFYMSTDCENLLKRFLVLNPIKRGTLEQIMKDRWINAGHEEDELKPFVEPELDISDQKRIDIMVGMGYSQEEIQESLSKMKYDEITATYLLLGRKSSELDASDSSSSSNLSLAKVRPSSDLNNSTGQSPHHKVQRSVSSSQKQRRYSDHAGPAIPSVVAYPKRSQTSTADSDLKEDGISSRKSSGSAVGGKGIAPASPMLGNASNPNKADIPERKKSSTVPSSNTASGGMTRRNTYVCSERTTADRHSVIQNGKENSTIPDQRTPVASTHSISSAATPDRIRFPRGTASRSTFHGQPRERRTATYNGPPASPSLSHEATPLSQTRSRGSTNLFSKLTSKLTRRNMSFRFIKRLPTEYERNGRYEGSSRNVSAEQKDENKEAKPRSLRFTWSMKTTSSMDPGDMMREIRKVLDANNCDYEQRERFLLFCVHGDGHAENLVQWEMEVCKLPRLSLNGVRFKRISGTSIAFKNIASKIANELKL
UniProt O75116: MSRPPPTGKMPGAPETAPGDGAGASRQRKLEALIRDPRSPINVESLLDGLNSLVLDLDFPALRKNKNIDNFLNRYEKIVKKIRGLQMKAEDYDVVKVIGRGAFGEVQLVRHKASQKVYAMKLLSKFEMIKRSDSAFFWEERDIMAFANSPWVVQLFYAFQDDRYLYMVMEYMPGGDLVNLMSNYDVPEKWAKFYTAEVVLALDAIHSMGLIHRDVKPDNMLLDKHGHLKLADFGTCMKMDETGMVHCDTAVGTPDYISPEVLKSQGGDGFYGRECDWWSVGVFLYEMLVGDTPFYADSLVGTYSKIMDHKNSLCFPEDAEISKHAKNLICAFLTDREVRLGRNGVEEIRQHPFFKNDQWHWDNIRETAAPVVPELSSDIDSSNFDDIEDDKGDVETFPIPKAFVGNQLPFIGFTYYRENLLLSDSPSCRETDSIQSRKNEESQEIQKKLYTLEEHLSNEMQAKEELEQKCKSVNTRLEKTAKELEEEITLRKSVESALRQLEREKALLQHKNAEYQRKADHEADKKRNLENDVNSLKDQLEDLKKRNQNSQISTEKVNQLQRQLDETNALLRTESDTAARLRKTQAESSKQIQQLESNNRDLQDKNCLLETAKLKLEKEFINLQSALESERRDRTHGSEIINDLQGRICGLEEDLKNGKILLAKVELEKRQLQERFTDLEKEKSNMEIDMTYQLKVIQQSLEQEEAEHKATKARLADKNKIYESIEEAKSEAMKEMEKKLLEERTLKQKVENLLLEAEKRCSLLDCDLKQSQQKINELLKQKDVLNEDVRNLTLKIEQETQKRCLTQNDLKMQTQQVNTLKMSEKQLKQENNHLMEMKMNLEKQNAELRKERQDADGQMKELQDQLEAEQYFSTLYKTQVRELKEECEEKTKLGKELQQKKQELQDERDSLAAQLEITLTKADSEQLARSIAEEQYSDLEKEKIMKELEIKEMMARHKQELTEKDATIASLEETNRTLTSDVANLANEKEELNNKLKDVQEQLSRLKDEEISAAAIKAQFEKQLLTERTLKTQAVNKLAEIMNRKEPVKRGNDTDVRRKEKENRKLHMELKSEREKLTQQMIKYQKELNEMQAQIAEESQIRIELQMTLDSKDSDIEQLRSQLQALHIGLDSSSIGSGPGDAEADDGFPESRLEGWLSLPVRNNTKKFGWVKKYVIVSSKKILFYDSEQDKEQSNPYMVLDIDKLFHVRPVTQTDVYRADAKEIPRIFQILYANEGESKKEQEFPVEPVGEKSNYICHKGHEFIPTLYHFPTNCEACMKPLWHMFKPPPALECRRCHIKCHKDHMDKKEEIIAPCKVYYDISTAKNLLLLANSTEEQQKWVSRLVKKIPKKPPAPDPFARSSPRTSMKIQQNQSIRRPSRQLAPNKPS
UniProt P52333: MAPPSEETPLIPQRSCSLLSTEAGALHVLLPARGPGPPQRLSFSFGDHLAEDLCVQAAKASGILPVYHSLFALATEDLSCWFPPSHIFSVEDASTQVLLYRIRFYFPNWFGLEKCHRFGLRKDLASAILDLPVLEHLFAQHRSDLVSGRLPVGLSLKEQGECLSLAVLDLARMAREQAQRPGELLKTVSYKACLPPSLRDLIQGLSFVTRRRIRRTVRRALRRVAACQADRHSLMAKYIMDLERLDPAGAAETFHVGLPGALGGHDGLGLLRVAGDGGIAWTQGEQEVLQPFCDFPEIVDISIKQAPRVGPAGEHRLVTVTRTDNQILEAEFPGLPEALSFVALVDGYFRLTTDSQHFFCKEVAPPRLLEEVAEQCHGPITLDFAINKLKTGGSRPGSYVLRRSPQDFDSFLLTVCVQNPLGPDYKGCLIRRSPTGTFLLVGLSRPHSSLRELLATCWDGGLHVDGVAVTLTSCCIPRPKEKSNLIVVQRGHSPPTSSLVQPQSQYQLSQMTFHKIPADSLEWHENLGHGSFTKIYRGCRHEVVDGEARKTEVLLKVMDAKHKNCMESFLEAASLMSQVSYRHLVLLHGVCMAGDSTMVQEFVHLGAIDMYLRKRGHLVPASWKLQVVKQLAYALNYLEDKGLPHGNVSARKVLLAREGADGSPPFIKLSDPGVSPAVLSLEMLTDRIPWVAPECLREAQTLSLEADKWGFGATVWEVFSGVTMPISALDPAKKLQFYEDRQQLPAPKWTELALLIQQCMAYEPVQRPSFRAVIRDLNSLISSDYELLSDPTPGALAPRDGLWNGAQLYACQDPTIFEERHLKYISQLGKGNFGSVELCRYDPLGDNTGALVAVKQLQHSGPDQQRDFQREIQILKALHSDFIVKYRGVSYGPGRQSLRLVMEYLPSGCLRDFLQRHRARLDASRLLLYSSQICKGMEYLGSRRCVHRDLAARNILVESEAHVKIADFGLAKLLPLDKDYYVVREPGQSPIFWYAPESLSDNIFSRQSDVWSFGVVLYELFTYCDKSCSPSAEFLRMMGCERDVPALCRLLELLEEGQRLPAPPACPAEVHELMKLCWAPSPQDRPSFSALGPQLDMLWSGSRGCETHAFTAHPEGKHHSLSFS
UniProt P11309, whole entry, looked up: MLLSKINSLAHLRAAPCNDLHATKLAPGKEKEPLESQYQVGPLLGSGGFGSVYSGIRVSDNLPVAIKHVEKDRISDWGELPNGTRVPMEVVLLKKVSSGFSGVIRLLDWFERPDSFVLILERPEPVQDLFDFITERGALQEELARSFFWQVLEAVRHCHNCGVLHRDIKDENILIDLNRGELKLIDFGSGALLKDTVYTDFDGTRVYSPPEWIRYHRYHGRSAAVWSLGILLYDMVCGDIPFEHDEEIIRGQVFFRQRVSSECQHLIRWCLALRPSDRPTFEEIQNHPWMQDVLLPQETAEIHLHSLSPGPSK
UniProt P10721, whole entry: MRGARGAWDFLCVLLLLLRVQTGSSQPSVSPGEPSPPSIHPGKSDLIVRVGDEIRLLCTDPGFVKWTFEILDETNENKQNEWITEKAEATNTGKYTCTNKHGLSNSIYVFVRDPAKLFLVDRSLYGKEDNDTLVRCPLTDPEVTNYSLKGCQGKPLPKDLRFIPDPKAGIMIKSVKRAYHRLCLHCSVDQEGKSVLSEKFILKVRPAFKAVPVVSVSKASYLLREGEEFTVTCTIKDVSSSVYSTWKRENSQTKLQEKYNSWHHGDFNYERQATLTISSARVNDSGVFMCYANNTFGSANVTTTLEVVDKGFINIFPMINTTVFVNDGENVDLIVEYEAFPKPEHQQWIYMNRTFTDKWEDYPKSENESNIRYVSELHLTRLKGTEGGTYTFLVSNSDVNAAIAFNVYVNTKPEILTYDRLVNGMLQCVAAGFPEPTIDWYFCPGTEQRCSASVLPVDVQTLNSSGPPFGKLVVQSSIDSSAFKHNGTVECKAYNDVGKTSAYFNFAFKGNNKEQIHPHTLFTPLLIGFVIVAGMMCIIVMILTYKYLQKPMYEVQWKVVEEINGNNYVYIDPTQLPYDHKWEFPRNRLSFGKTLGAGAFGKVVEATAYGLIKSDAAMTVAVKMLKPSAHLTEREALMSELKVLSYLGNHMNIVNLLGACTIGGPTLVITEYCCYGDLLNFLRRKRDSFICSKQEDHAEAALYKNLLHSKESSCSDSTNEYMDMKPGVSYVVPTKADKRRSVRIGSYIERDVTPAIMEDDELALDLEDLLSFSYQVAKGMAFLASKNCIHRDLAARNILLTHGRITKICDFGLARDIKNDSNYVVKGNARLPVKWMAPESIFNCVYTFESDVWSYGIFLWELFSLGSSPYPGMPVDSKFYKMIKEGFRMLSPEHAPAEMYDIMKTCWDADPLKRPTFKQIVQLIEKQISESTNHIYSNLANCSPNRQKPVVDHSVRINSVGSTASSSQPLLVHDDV
UniProt P07333, whole entry: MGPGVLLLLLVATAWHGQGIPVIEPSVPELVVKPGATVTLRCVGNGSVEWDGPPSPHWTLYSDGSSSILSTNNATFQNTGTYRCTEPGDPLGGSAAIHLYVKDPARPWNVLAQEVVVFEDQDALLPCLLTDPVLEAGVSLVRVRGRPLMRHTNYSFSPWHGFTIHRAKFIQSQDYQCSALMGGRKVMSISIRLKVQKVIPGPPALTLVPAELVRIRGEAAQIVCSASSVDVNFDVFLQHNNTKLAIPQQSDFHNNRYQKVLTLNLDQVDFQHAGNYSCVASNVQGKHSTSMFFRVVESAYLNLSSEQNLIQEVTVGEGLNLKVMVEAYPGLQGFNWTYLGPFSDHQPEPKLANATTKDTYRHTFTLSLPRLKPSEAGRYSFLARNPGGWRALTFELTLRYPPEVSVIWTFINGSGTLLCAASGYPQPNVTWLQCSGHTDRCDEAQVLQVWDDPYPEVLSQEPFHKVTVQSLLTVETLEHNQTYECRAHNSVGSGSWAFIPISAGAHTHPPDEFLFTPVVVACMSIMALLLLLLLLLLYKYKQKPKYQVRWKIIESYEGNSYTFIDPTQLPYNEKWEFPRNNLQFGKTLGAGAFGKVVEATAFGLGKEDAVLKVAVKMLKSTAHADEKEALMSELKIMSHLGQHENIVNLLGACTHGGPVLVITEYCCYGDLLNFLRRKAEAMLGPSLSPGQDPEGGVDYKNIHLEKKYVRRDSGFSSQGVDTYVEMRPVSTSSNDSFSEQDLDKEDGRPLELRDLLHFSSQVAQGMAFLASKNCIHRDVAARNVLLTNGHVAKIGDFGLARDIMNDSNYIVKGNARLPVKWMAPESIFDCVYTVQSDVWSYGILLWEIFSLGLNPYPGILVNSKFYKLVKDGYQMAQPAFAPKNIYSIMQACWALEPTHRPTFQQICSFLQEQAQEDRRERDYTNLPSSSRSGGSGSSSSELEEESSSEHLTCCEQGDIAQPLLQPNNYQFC
UniProt P04629: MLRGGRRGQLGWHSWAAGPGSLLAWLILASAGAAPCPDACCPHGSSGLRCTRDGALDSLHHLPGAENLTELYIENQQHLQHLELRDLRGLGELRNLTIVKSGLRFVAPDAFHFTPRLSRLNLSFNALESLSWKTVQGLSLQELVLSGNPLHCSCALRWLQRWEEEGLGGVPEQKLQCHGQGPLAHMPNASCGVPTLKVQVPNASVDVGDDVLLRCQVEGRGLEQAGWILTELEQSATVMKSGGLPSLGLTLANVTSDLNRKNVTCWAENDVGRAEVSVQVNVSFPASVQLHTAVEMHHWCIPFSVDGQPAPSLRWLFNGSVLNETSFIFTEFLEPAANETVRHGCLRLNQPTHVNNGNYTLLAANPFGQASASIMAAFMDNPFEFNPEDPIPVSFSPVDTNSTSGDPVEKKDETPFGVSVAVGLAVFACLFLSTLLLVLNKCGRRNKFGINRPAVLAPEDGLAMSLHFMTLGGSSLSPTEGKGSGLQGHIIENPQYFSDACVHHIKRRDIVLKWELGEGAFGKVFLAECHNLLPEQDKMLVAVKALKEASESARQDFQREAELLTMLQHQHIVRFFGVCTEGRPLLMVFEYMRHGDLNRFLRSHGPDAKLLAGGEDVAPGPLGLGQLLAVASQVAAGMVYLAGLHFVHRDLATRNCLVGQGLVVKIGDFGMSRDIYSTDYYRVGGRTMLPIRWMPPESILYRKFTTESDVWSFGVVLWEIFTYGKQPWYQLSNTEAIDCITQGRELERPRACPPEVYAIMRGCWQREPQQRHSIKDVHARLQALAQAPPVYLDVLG

Columns and labels:
[1] = molecular target: Epidermal growth factor receptor (Homo sapiens) (UniProt P00533); assay: Inhibition of EGFR (unknown origin) at 25 uM by scanEDGE kinase assay relative to control
[2] = molecular target: MAP/microtubule affinity-regulating kinase 3 (Homo sapiens) (UniProt P27448); assay: Inhibition of MARK3 (unknown origin) at 25 uM by scanEDGE kinase assay relative to control
[3] = molecular target: Rho-associated protein kinase 2 (Homo sapiens) (UniProt O75116); assay: Inhibition of ROCK2 (unknown origin) at 25 uM by scanEDGE kinase assay relative to control
[4] = molecular target: Non-receptor tyrosine-protein kinase TYK2 (Homo sapiens) (UniProt P29597); assay: Inhibition of TYK2 (unknown origin) at 25 uM by scanEDGE kinase assay relative to control
[5] = molecular target: Tyrosine-protein kinase JAK3 (Homo sapiens) (UniProt P52333); assay: Inhibition of JAK3 (unknown origin) at 25 uM by scanEDGE kinase assay relative to control
[6] = molecular target: NUAK family SNF1-like kinase 2 (Homo sapiens) (UniProt Q9H093); assay: Inhibition of SNARK (unknown origin) at 25 uM by scanEDGE kinase assay relative to control
[7] = tested on: Epidermal growth factor receptor (Homo sapiens), P00533 [L858R]; assay: Inhibition of EGFR L858R mutant (unknown origin) at 25 uM by scanEDGE kinase assay relative to control
[8] = molecular target: Platelet-derived growth factor receptor beta (Homo sapiens) (UniProt P09619); assay: Inhibition of PDGFRB (unknown origin) at 25 uM by scanEDGE kinase assay relative to control
[9] = molecular target: Serine/threonine-protein kinase pim-1 (Homo sapiens) (UniProt P11309); assay: Inhibition of PIM1 (unknown origin) at 25 uM by scanEDGE kinase assay relative to control
[10] = molecular target: Ephrin type-A receptor 2 (Homo sapiens) (UniProt P29317); assay: Inhibition of EPHA2 (unknown origin) at 25 uM by scanEDGE kinase assay relative to control
[11] = molecular target: Focal adhesion kinase 1 (Homo sapiens) (UniProt Q05397); assay: Inhibition of FAK (unknown origin) at 25 uM by scanEDGE kinase assay relative to control
[12] = molecular target: Mast/stem cell growth factor receptor Kit (Homo sapiens) (UniProt P10721); assay: Inhibition of KIT (unknown origin) at 25 uM by scanEDGE kinase assay relative to control
[13] = molecular target: Macrophage colony-stimulating factor 1 receptor (Homo sapiens) (UniProt P07333); assay: Inhibition of CSF1R (unknown origin) at 25 uM by scanEDGE kinase assay relative to control
[14] = molecular target: ALK tyrosine kinase receptor (Homo sapiens) (UniProt Q9UM73); assay: Inhibition of ALK (unknown origin) at 25 uM by scanEDGE kinase assay relative to control
[15] = tested on: Tyrosine-protein kinase ABL1 (Homo sapiens), P00519 [E255K]; assay: Inhibition of ABL1 E255K mutant (unknown origin) at 25 uM by scanEDGE kinase assay relative to control
[16] = molecular target: Tyrosine-protein kinase ABL1 (Homo sapiens, UniProt P00519); assay: Inhibition of ABL1 (unknown origin) at 25 uM by scanEDGE kinase assay relative to control
[17] = molecular target: Tyrosine-protein kinase JAK2 (Homo sapiens, UniProt O60674); assay: Inhibition of JAK2 (unknown origin) at 25 uM by scanEDGE kinase assay relative to control
[18] = molecular target: Proto-oncogene tyrosine-protein kinase Src (Homo sapiens, UniProt P12931); assay: Inhibition of SRC (unknown origin) at 25 uM by scanEDGE kinase assay relative to control
[19] = molecular target: High affinity nerve growth factor receptor (Homo sapiens, UniProt P04629); assay: Inhibition of TRKA (unknown origin) at 25 uM by scanEDGE kinase assay relative to control
[20] = molecular target: Receptor-type tyrosine-protein kinase FLT3 (Homo sapiens, UniProt P36888); assay: Inhibition of FLT3 (unknown origin) at 25 uM relative to control
[21] = molecular target: MAP kinase-activated protein kinase 2 (Homo sapiens, UniProt P49137); assay: Inhibition of MK2 (unknown origin) at 25 uM relative to control

CC(Nc1nc(-c2cccc(N(C)C)c2)cnc1N)c1ccccc1 (racemic)
inhibition [1]: 40%
inhibition [2]: 40%
inhibition [3]: 49%
inhibition [4]: 49%
inhibition [5]: 50%
inhibition [6]: 51%
inhibition [7]: 54%
inhibition [8]: 55%
inhibition [9]: 57%
inhibition [10]: 67%
inhibition [11]: 74%
inhibition [12]: 77%
inhibition [13]: 79%
inhibition [14]: 83%
inhibition [15]: 90.8%
inhibition [16]: 90.9%
inhibition [17]: 96%
inhibition [18]: 97.5%
inhibition [19]: 99.9%
inhibition [20]: 17%
inhibition [21]: 11%
